Test results published in US7175991B2, “Method of measuring binding site on plasma protein of plasma protein-binding drug and method of measuring plasma protein mutation” (Nihon Medi-Physics Co., Ltd., priority 2002, dated 2007).

By UniProt entry, the sequences of proteins in these tests, tags left out. Residues count along the entry.
UniProt P02768, 25-609: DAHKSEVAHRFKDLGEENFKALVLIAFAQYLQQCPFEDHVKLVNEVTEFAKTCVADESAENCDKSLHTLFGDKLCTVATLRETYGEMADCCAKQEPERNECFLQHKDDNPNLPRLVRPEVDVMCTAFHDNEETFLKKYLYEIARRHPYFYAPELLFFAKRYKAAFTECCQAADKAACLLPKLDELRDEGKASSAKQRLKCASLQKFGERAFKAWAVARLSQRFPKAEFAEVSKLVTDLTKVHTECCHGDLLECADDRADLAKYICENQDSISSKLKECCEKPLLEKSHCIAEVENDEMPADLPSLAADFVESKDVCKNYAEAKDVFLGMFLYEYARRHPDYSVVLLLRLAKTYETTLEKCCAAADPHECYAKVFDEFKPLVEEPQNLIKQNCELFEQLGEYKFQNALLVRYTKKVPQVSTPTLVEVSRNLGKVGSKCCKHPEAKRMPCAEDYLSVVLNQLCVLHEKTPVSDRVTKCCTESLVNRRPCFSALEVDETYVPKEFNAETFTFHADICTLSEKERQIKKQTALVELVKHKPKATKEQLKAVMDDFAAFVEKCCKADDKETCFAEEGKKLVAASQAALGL

Experiments:
HSA Site II = HSA Site II (Homo sapiens, UniProt P02768); conditions: 400 μM, pH 7.4
AGP Site A and B [1] = conditions: human, 400 μM, pH 7.4
AGP Site A and B [2] = conditions: pH 7.4

SMILES: CC(C)NCC(O)COc1cccc2ccccc12 (stereo not shown) [PPL, propranolol]
- Free drug ratio (%) of ^14C-DZP (HSA Site II): 2.76%
- Change ratio (time) of ^3H-PPL free drug ratio (AGP Site A and B [1]): 2.90 time
- Free drug ratio (%) of ^3H-PPL (AGP Site A and B [1]): 34.28%
- Difference of free drug ratio of control, human serum 2 compared with normal male serum (AGP Site A and B [2]): ≥ 2.3 times
